Screening results (PubChem BioAssay)
ALR inh = inhibitors of human sulfhydryl oxidase ALR; AID 485317; purified ALR, DTT oxidation, H2O2 HRP-luminol luminescence; inhibition, % (concentration not given with the values); P55789; hit rate 3.8% among 290,000;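 active = mean and each replicate at 75% or more; inconclusive = only one of the two met; inactive = neither met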;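 note: stock transfer was 7.5 nL into about 7.5 µL; 0% = neutral wells and 100% = wells with inactivated enzyme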
MC4R antagonist = blocks human MC4R cAMP signaling | P32245 | MC4R-expressing cells, MTII-stimulated cAMP, LANCE TR-FRET | inhibition, % at 6.5 µM | 360,000 compounds, 0.48% hits | AID 540295;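 active = inhibition above its plate's cutoff, the mean of tested wells on that plate plus 3 SD, cut at about 29% in these data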;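 also: 0% = Melanotan II alone and 100% = Melanotan II plus saturating MCL0020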
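Test system: U2OS cells stably expressing human melanocortin 4 receptor (MC4R); also added: Melanotan II challenge; compound: 6.5 µM single dose; timing: 30-min compound preincubation, 1-h Melanotan II challenge, 1-h detection, room temperature; signal: Eu-cAMP/anti-cAMP TR-FRET, emission 671 nm; repeats: one well per compound, no replicates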
MC4R ag barr = human MC4R agonism via beta-arrestin | U2OS MC4R beta-arrestin complementation, luminescence; percent of melanotan II response, DMSO zero | activation, % at 8.9 µM | P32245 | 360,000 compounds, 0.98% hits;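 active = activation above a per-plate cutoff, the mean activation of sample wells on that plate plus 3 SD, cut at about 8% in these data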
NALP1 yeast inh = blocks the NALP1 inflammasome reconstituted in yeast. S. cerevisiae NALP1/ASC/caspase-1 growth, X-gal OD620, 72 h. inhibition, % at 10 µM. 280,000 compounds, 0.61% hits. AID 2071; in the data active = inhibition mostly above about 24%, no sharp cut-off; inactive = mostly below about 32%
HDAC3 inhib = inhibitors of human histone deacetylase 3 | inhibition, % at 8.3 µM | 320,000 compounds, 0.15% hits | recombinant HDAC3, fluorogenic peptide/trypsin coupled, fluorescence; in the data active = inhibition above about 26%, passing the limit was not always enough; inconclusive = no clear call, values can overlap the other calls
UUG fidelity = alters start codon recognition fidelity in yeast | S. cerevisiae UUG-firefly luciferase reporter, luminescence/redox ratio | activity score, % at 18.7 µM | 350,000 compounds, 0.13% hits | AID 602363;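 active = replicate mean at a twofold rise or more, about +100% in these data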;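 note: firefly luciferase made from a UUG start codon reports start codon fidelity; reporter light over untreated wells divided by growth signal over untreated wells; some hits fall short of that in this replicate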
* marks the source's active call; other numbers are inactive results; ? = inconclusive; / = no result given. In the library only some 4.2% were active in any assay of this set; here they are far more common.

No.	SMILES	ALR inh	MC4R antagonist	MC4R ag barr
1	CC(C(=O)O)N1C(=O)/C(=C/C=C/c2ccco2)SC1=S (stereo unspecified)	97*	-7	0
2	COc1cccc(S(=O)(=O)N[C@@H]2C=C[C@H](CC(=O)NCc3ccncc3)O[C@H]2CO)c1	/	/	/
3	O=C(CN1CCOCC1)NCC[C@@H]1CC[C@H](NC(=O)c2ccc3c(c2)OCO3)[C@@H](CO)O1	/	/	/
4	CC(C)n1cc(-c2ccc(Cl)cc2)cc(C#N)c1=O	-17	-2	0
5	CC(C)NC(=O)N[C@H]1CC[C@@H](CC(=O)N2CCCCC2)O[C@@H]1CO	/	/	/
6	Cc1ccc(-n2nc3ccc(NC(=O)c4cccc([N+](=O)[O-])c4C)cc3n2)cc1	1	26	8.9*
7	C[C@@H]1CN([C@H](C)CO)C(=O)c2cc(NC(=O)CCC(F)(F)F)ccc2O[C@@H]1CN(C)Cc1ccc2c(c1)OCO2	/	/	/
8	Cn1c(-c2ccc(C=O)s2)nc2c3ccccc3c3ccccc3c21	-52	1	1
9	Cc1nc(C)c(/C(O)=C/c2nc3ccccc3oc2=O)s1	38	6	0
10	Cc1ccc(S(=O)(=O)Nc2cc(C(C)C)c(O)cc2C)cc1	97*	14	0

No.	NALP1 yeast inh	HDAC3 inhib	UUG fidelity
1	-7	11	-9
2	/	/	-18
3	/	/	-8
4	31*	6	/
5	/	/	3
6	10	4	/
7	/	/	-1
8	32*	1	/
9	61*	3	/
10	18	5	-12

Remaining list, next part.
No.	SMILES	ALR inh	MC4R antagonist	MC4R ag barr
11	CCNC(=O)C[C@@H]1CC[C@@H]2[C@H](COc3ccc(NC(=O)c4cc(C)on4)cc3C(=O)N2C)O1	/	/	/
12	N#CC(C#N)=C(N)/C(C#N)=C/c1cc(O)c(O)c(O)c1	96*	7	-3
13	Cc1ccc(CNC(=O)CCc2nnc(Cc3ccc(-c4ccccc4)cc3)o2)o1	97*	1	2
14	COCCCNC(=O)CCc1nnc(Cc2ccc(-c3ccccc3)cc2)o1	/	21	-5
15	CCc1ccc2nc(N(CCCN(C)C)C(=O)c3ccc(S(=O)(=O)N4CCc5ccccc5C4)cc3)sc2c1	-12	-8	20*
16	CCc1ccc2nc(N(CCCN(C)C)C(=O)c3ccc(S(=O)(=O)N(C)C4CCCCC4)cc3)sc2c1	-1	11	13*
17	CN(C)CCCN(C(=O)c1ccc(S(=O)(=O)N(C)C2CCCCC2)cc1)c1nc2ccc(F)cc2s1	-5	4	1
18	CCN(CC)c1ccc2cc(C#N)c(=O)oc2c1	-4	2	-1
19	CCN(CC)c1ccc2c(C)cc(=O)oc2c1	99*	-2	1
20	CCN(CC)c1ccc2ccc(=O)oc2c1	98*	11	0

No.	NALP1 yeast inh	HDAC3 inhib	UUG fidelity
11	/	/	6
12	/	7	0
13	1	3	/
14	12	-1	-14
15	26	7	-6
16	18	/	16
17	32	3	-6
18	2	2	/
19	/	-46	-2
20	-2	-9	/

In another format: entries from further up.
No.	ALR inh	MC4R antagonist	MC4R ag barr	NALP1 yeast inh	HDAC3 inhib	UUG fidelity	Molecule
15	-12	-8	20*	26	7	-6	CCc1ccc2nc(N(CCCN(C)C)C(=O)c3ccc(S(=O)(=O)N4CCc5ccccc5C4)cc3)sc2c1
16	-1	11	13*	18	/	16	CCc1ccc2nc(N(CCCN(C)C)C(=O)c3ccc(S(=O)(=O)N(C)C4CCCCC4)cc3)sc2c1
17	-5	4	1	32	3	-6	CN(C)CCCN(C(=O)c1ccc(S(=O)(=O)N(C)C2CCCCC2)cc1)c1nc2ccc(F)cc2s1
18	-4	2	-1	2	2	/	CCN(CC)c1ccc2cc(C#N)c(=O)oc2c1

Later entries.
No.	SMILES	ALR inh	MC4R antagonist	MC4R ag barr
21	CCN(CC)c1ccc2c(C)c(-c3ccc(N)cc3)c(=O)oc2c1	87*	18	3
22	CCCNC(=O)N1C[C@@H](C)[C@@H](OC)CN(C)C(=O)c2ccc(NC(C)=O)cc2OC[C@@H]1C	/	/	/
23	C=CCNc1nc(C(=O)OCC(=O)c2ccc(C)c([N+](=O)[O-])c2)cs1	-4	-2	-5
24	C=CCNc1nc(C(=O)OCC(=O)c2ccc(Cl)cc2)cs1	98*	7	-1
25	CCN(CCO)c1ccc(N=Nc2cc(C)[nH]n2)cc1	84*	-14	-4
26	CSC1=NCCN1C(=O)c1cccc(C(F)(F)F)c1	-2	16	0
27	O=C(C1CC1)N1CCN=C1SCc1cccc(C(F)(F)F)c1	?	-9	-2
28	CC(=O)N1CCN=C1SCc1cccc(C(F)(F)F)c1	99*	-1	-1
29	CC(=O)N1CCN=C1SCc1ccc(Br)cc1	96*	3	-1
30	CCOC(=O)N1CCN=C1SCc1ccc(Cl)c(Cl)c1	99*	-2	2

No.	NALP1 yeast inh	HDAC3 inhib	UUG fidelity
21	-1	-18	-3
22	/	/	-2
23	3	4	-6
24	/	2	-14
25	3	2	/
26	-39	-2	-24
27	-38	-5	-1
28	15	3	-11
29	30	10	-2
30	8	8	-6

Carrying on.
No.	SMILES	ALR inh	MC4R antagonist	MC4R ag barr
31	CCC(=O)N1CCN=C1SCc1cccc(C(F)(F)F)c1	99*	-7	-2
32	CC(C)c1cn(CC[C@@H]2CC[C@@H](NC(=O)c3cccc(F)c3)[C@@H](CO)O2)nn1	/	/	/
33	COc1cccc(-c2ccc([C@H]3[C@@H](CO)N(C(=O)c4ccccn4)[C@H]3C#N)cc2)c1	/	/	/
34	Cc1cc(NN)nc(Cc2ccccc2)n1	81*	11	-1
35	O=C(NC1CCCCC1)c1ccc(-c2cccc([N+](=O)[O-])c2)o1	94*	13	2
36	C[C@@H]1CN([C@H](C)CO)S(=O)(=O)c2ccc(-c3cccc(C#N)c3)cc2O[C@@H]1CN(C)C(=O)C1CC1	/	/	/
37	CN1C(=O)c2cc(NC(=O)Nc3ccccc3)ccc2OC[C@@H]2O[C@H](CC(=O)NC3CCC3)CC[C@@H]21	/	/	/
38	O=C(CCN1CCN(c2ccccc2)CC1)NNC(=O)c1cccc2ccccc12	99*	14	-1
39	Cc1cc(C(=O)NNC(=O)CCN2CCN(c3ccccc3)CC2)c2ccccc2n1	98*	2	-3
40	COc1cccc(C(=O)NNC(=O)CCN2CCN(c3ccccc3)CC2)c1	86*	7	0

No.	NALP1 yeast inh	HDAC3 inhib	UUG fidelity
31	16	-2	-19
32	/	/	-3
33	/	/	10
34	-1	6	-5
35	17	14	-14
36	/	/	-6
37	/	/	13
38	16	-7	12
39	-2	-1	-10
40	/	-17	-4

(listing goes on)
No.	SMILES	ALR inh	MC4R antagonist	MC4R ag barr
41	COc1ccc(/C=C/c2cccc[n+]2C)c(O)c1	/	-2	0
42	CCN(CC)c1ccc(/C=C/c2cccc[n+]2C)c(OC)c1	99*	-22	-2
43	O=C(/C=C1\SC(=O)NC1=O)Nc1ccc(F)cc1	97*	8	-2
44	CO[C@@H]1CN(C)C(=O)c2ccc(NC(=O)Nc3ccc(Cl)cc3)cc2OC[C@H](C)N(C(=O)Nc2c(C)noc2C)C[C@@H]1C	/	/	/
45	Cc1cc2n(n1)C(c1ccc3c(c1)OCO3)Nc1c(C)cccc1-2 (stereo unspecified)	98*	8	-1
46	CNC[C@H]1Oc2ncc(-c3ccccc3C)cc2C(=O)N([C@@H](C)CO)C[C@H]1C	/	/	/
47	CCN(CC)S(=O)(=O)c1cc(NC(=O)C(C)N2CCc3ccccc32)ccc1C (stereo unspecified)	-1	6	1
48	CC(C(=O)Nc1ccc(S(N)(=O)=O)cc1)N1CCc2ccccc21 (stereo unspecified)	99*	-1	1
49	Cc1nc(-c2ccccc2)nc(Cl)c1Cl	4	11	-3
50	COc1ccc(-c2nc(CS(=O)CC(=O)NCCc3ccc(C)cc3)c(C)o2)cc1OC (stereo unspecified)	99*	-2	-3
51	CCOc1ccc(CCNC(=O)CCc2nc(-c3ccc(OC)cc3)no2)cc1OCC	0	3	2

No.	NALP1 yeast inh	HDAC3 inhib	UUG fidelity
41	16	8	1
42	7	20	47
43	-4	4	/
44	/	/	-2
45	-7	-4	-26
46	/	/	43
47	5	8	-5
48	0	-7	/
49	33*	-6	/
50	11	0	-3
51	42	2	-15
